The source of these data is patent US20190241864A1, “Composition Comprising Non-Germinant and Bacterial Spores” (NOVOZYMES BIOAG A/S, priority 2016, published 2019).

The experiment deals with Bacillus pumilus strain SB3189 spores. Nature of the experiment: Microscopy of spores after L-valine treatment alone (phase-bright to phase-dark). Conditions: 0.5, 3.0, or 10.0 mM for 24 hours at 4° C. or 22° C.

With `CC(C)[C@H](N)C(=O)O` [L-valine], the “germination as a result of L-valine treatment alone, by microscopy” value is recorded as “No germination of the spores occurred”.
